The list shows a part of the results. Results with a measured potency or affinity are listed apart. Activity calls are given as the source filed them. Cut-off read from the data, not from the text of the source: active = inhibition above about 50%; inactive = the rest.

Sequences of proteins named here, by UniProt entry; tags and fusion partners are left off. A change or cut given only in a name is not applied to a line headed by its entry.
UniProt P41145: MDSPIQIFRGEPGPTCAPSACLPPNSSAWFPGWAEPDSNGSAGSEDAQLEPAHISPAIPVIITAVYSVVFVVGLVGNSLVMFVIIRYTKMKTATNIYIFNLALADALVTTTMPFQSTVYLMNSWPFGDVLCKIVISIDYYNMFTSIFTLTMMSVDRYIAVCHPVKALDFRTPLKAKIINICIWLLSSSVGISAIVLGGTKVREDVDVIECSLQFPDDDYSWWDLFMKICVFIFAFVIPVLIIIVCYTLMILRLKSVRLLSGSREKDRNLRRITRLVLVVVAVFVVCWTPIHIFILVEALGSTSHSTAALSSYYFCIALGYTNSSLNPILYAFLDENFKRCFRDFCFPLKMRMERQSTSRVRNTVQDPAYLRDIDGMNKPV

For 93 compounds, inhibition results are on record in PubChem BioAssay AID1778 (Sanford-Burnham Center for Chemical Genomics, 2009).

In this assay the target is Kappa-type opioid receptor (Homo sapiens) (UniProt P41145). Kind of assay: KOR antagonists, beta-arrestin recruitment, cell-based, luminescence, uHTS (AID 1778). The following applies: antagonist mode, at 10 µM, stronger effect = higher value. For orientation: Recruitment of arrestin is a read-out of receptor activation apart from second messengers.
One may read the inhibition as the change of the read-out against control, counted positive when it falls. As for `CCC(=O)Nc1ccc(NC(=O)/C=C/c2ccc(Cl)cc2)cc1`, the inhibition was inactive: -21.1%.

Turning to `NC(=O)Cn1c2[n+](c3ccccc31)CC(O)CS2` (stereo not drawn), the inhibition was inactive: -7.3%.

As for `CCN(CC)CCn1c(NCc2ccccn2)nc2ccccc21`, the inhibition was inactive: 4.6%.

In the case of `CCN(CC)CCn1c(N)nc2ccccc21`, the inhibition is inactive: 14.3%.

In the case of `Cc1ccc(C(C(=O)NC2CCCCC2)N(Cc2ccco2)C(=O)Cn2cnc3ccccc32)cc1` (stereo not drawn), the inhibition was inactive: 12.1%.

Turning to `CC(O)CNc1nc2ccccc2n1CC(=O)NCC(F)(F)F` (stereo not drawn), the inhibition is inactive: -21.5%.

Turning to `O=C(CSc1nc2ccccc2n1CC(=O)N1CCCC1)N1CCN(C(=O)c2ccco2)CC1`, the inhibition is inactive: -34.4%.

Consider `C[C@H](NC(=O)N1CCn2c1nc1ccccc12)C(=O)NCCc1ccccc1`, for which the inhibition was inactive: -4.7%.

As for `CSc1ccccc1NC(=O)Cn1c(-c2cscn2)nc2ccccc21`, the inhibition was inactive: 21.9%.

On to `O=C(Cn1cnc2ccccc21)N/N=C/c1ccccn1`, for which the inhibition was inactive: 11.7%.

In the case of `CC(O)c1nc2ccccc2n1CC(=O)Nc1ccc2c(c1)OCCO2` (stereo not drawn), the inhibition is inactive: -9.9%.

As for `CSCC[C@H](NC(=O)N1CCn2c1nc1ccccc12)C(=O)NCC1CCCO1` (stereo partly drawn), the inhibition is inactive: -9.7%.

Regarding `Cc1nnc(NC(=O)Cn2cnc3c2c(=O)n(C)c(=O)n3C)s1`, the inhibition is inactive: 6.3%.

Take `Cc1ccc(/C=N/NC(=O)Cn2cnc3c2c(=O)n(C)c(=O)n3C)s1`: the inhibition is inactive: 5.1%.

For `O=C(Cn1c2[n+](c3ccc(C(F)(F)F)cc31)CCCCC2)Nc1ccccc1`, the inhibition is inactive: -9%.

As for `Cc1ccc(Cn2nnnc2CN2CCC(n3nnc4ccccc43)CC2)cc1`, the inhibition was inactive: 24.9%.

For the compound `O=c1oc2ccccc2c2c1ncn2CCN1CCOCC1`, the inhibition was inactive: -18.3%.

`COc1ccc(OC)c(C(=O)CSc2nc3ccccc3n2CC(=O)NC(C)(C)C)c1`: the inhibition is inactive: 10.3%.

With `CCOCN(C(=O)Cn1c(CO)nc2ccccc21)c1c(C)cccc1CC`, the inhibition is inactive: 3.8%.

For `Cn1c(=O)c2c(ncn2CC(=O)N2CCOCC2)n(C)c1=O`, the inhibition was inactive: 14.7%.

Take `Cn1c(=O)c2c(ncn2CC(=O)Nc2nc(-c3ccc(F)c(F)c3)cs2)n(C)c1=O`: the inhibition was inactive: 15.1%.

With `O=P(Nc1nc2ccccc2s1)(c1ccccc1)c1ccccc1`, the inhibition was inactive: 3.4%.

Consider `N=c1n(CCN2CCCC2)c2ccccc2n1CC(O)c1ccco1` (stereo not drawn), for which the inhibition is inactive: 8.3%.

On to `CC(C)N(C(=O)Cn1c(SCC(=O)NC2CC2)nc2ccccc21)C(C)C`, for which the inhibition is inactive: 42.5%.

Consider `CCN(CC)CCn1c(NS(=O)(=O)c2ccc(Cl)cc2)nc2ccccc21`, for which the inhibition is inactive: 21.3%.

For the compound `Cn1c(=O)c2c(nc(CN3CCN(c4ccccc4)CC3)n2CCN2CCOCC2)n(C)c1=O`, the inhibition was inactive: 3.2%.

Consider `C[C@H]1OP(=O)(Oc2ccccc2)[C@H](O)[C@H](O)[C@H]1N=[N+]=[N-]` (stereo partly drawn), for which the inhibition was inactive: 32.5%.

Turning to `Cc1cc2ncn(C3CC(=O)N(Cc4ccc(N5CCCC5=O)cc4)C3=O)c2cc1C` (stereo not drawn), the inhibition is inactive: 29.1%.

For `COc1ccccc1OCCSc1nc2ccccc2n1CC(N)=O`, the inhibition is inactive: -16.4%.

On to `Cn1c(=O)c2c(ncn2CC(=O)N/N=C/c2c[nH]c3ccccc23)n(C)c1=O`, for which the inhibition was inactive: -7.9%.

For the compound `O=[As](O)(c1ccccc1)c1ccc(O)cc1`, the inhibition is inactive: 18.3%.

On to `CCOc1ccc(NC(=O)N2CCC(n3c(=O)[nH]c4ccccc43)CC2)cc1`, for which the inhibition was inactive: -0.1%.

`O=C(Cn1c(=O)n(CC2CS2)c2ccccc21)N1CCCCC1` (stereo not drawn): the inhibition was inactive: -4.3%.

For `Cc1nc2cc(C(F)(F)F)ccc2n1C1CCN(Cc2nnnn2Cc2cccs2)CC1`, the inhibition was inactive: 15.9%.

For `COCC(C)NC(=O)Cn1c(SCc2ccccc2)nc2ccccc21` (stereo not drawn), the inhibition is inactive: -27.7%.

For the compound `Cc1nc2ccc(S(=O)(=O)NC(C(=O)N3CCn4c3nc3ccccc34)C(C)C)cc2s1` (stereo not drawn), the inhibition is inactive: 23.7%.

For `O=[N+]([O-])c1ncn(CCn2cnc([N+](=O)[O-])n2)n1`, the inhibition was inactive: -1.7%.

In the case of `CC(=O)NC(SC(=S)N(C)C)C(Cl)(Cl)Cl` (stereo not drawn), the inhibition is inactive: 20.1%.

As to `CCOC(=O)C1=C(Cn2cnc3ccccc32)NC(=O)NC1c1cc(C)ccc1C` (stereo not drawn), the inhibition is inactive: 15%.

Take `O=[N+]([O-])c1ccc(O)c(/C=N/Nc2ccc([N+](=O)[O-])cc2[N+](=O)[O-])c1`: the inhibition was inactive: -19.8%.

`OC1(c2ccccc2)CCN(Cc2ccccc2)CC1`: the inhibition is inactive: -14.7%.

Consider `CCn1nccc1C(=O)Nc1nc2ccccc2n1CCN1CCCCC1`, for which the inhibition was inactive: -0.9%.

Regarding `N=c1n(CCN2CCOCC2)c2ccccc2n1CC(=O)c1ccc(Cl)c(Cl)c1`, the inhibition is inactive: -23.7%.

Consider `O=C(Cn1c(CC(=O)N2CCCC2)nc2ccccc21)NCc1ccccc1`, for which the inhibition is inactive: 19.7%.

Consider `COCCOC(=O)C1=C(C)N=C2SCCC(=O)N2C1/C=C/c1ccccc1` (stereo not drawn), for which the inhibition is inactive: -11.6%.

Turning to `Cc1ccc2c(c1)C1CN(C)CCC1N2C(=O)/C=C/c1ccc2c(c1)OCO2` (stereo not drawn), the inhibition is inactive: 11.4%.

Regarding `COc1cc(C(=O)OCCn2c(=O)c3c(ncn3CCN(C)C)n(C)c2=O)cc(OC)c1OC`, the inhibition is inactive: 8.7%.

`O=C(Nc1cccc(F)c1)N1CCC(n2c(=O)[nH]c3ccccc32)CC1`: the inhibition is inactive: 34.6%.

Turning to `O=C(OC1CN2CCC1CC2)c1cccc(Cl)c1` (stereo not drawn), the inhibition is inactive: -37.6%.

Regarding `COc1ccc(N2C(=O)CC(N3CCC(n4c(=O)[nH]c5ccccc54)CC3)C2=O)cc1` (stereo not drawn), the inhibition is inactive: -52.3%.

Take `CCn1c(N)[n+](CC(=O)Nc2ccc(SC(F)F)cc2)c2ccccc21`: the inhibition is inactive: -32.4%.

On to `CN(C)C(=O)Cn1c(SCC(=O)NC2CCCCC2)nc2ccccc21`, for which the inhibition was inactive: 0.9%.

Turning to `CSCC[C@H](NC(=O)N1CCn2c1nc1ccccc12)C(=O)NCc1ccc(F)cc1`, the inhibition was inactive: -35.5%.

As for `Nc1ccc([As](=O)(O)c2ccc([N+](=O)[O-])cc2)cc1`, the inhibition was inactive: 0%.

Take `C(Cc1nn[nH]n1)Cc1nn[nH]n1`: the inhibition is inactive: -19%.

With `O=C(Nc1ccccc1Cl)N1CCn2c(nc3ccccc32)C1`, the inhibition was inactive: -20%.

With `COc1ccc(CCNC(=O)Cn2cnc3c2c(=O)n(C)c(=O)n3C)cc1OC`, the inhibition is inactive: 24.3%.

Take `Cn1c(=O)[nH]c(=O)c2c1nc(CN(Cc1ccccc1)Cc1ccccc1)n2CCN1CCOCC1`: the inhibition was inactive: -6.6%.

For `CCC(C(=O)NC1CCCCC1)n1c(SCc2cccc(F)c2)nc2ccncc21` (stereo not drawn), the inhibition is inactive: 14.8%.

Regarding `CC(/C=N/NC(=O)Cn1cnc2c1c(=O)n(C)c(=O)n2C)=C\c1ccccc1`, the inhibition is inactive: 7.4%.

`CC(C)c1ccccc1NC(=O)Cn1c(-c2ccccc2Cl)nc2ccccc21`: the inhibition is inactive: -0.6%.

Regarding `c1ccc(CNc2nc3ccccc3n2CCN2CCOCC2)nc1`, the inhibition is inactive: -50.8%.

`O=P(Nc1nccs1)(c1ccccc1)c1ccccc1`: the inhibition is inactive: 11.9%.

On to `Cn1c(=O)n(CC(=O)N2CCOCC2)c2ccccc21`, for which the inhibition was inactive: 6%.

As for `CC(C)C(=O)NC(Sc1ccccc1)C(Cl)(Cl)Cl` (stereo not drawn), the inhibition was inactive: -13.7%.

`CCc1ccc(NC(=O)Cn2cnc3c(=O)n(C)c(=O)n(C)c32)cc1`: the inhibition is inactive: 0.7%.

Turning to `CCS(=O)(=O)c1nc2ccccc2n1CC(=O)N1CCCCC1`, the inhibition was inactive: 10.8%.

Consider `CC1CCCC(C)N1C(=O)Cn1c(SCC(=O)Nc2ccc3c(c2)OCO3)nc2ccccc21` (stereo not drawn), for which the inhibition is inactive: 1.7%.

Consider `c1ccc2c(c1)nc1n2CCN1CCN1CCCC1`, for which the inhibition was inactive: -24.5%.

Consider `Cn1c(=O)c2c(ncn2CC(=O)N2CCN(S(=O)(=O)c3ccccc3)CC2)n(C)c1=O`, for which the inhibition was inactive: -11.3%.

As to `O=C(c1cccs1)N1CCn2c1nc1ccccc12`, the inhibition was inactive: -3.3%.

In the case of `CC(C)C[C@H](NC(=O)N1CCn2c1nc1ccccc12)C(=O)NC1CC1`, the inhibition was inactive: -29.4%.

In the case of `CCN(CC)CCn1c(=N)n(CC(O)COc2cccc(C)c2)c2ccccc21` (stereo not drawn), the inhibition was inactive: -8.2%.

Regarding `COc1ccc(OCC(O)Cn2c(=N)n(CCN3CCCCC3)c3ccccc32)cc1` (stereo not drawn), the inhibition is inactive: 15.6%.

As to `N#CCCN1CCn2c1nc1ccccc12`, the inhibition is inactive: -27.5%.

As for `Cn1c(=O)c2ncn(CC(=O)N/N=C/c3ccco3)c2n(C)c1=O`, the inhibition was inactive: -15.4%.

For `CSc1nc2ccccc2n1CC(=O)Nc1cc(C(F)(F)F)ccc1N1CCOCC1`, the inhibition is inactive: 16.1%.

Take `CCOc1ccc(CCNC(=O)Cn2c(-c3nonc3N)nc3ccccc32)cc1OCC`: the inhibition was inactive: 15.3%.

With `CCN(CC)CCn1c(NCc2nc3ccccc3n2Cc2ccccc2)nc2ccccc21`, the inhibition is inactive: -12.1%.

Turning to `O=C(CCCCCNC(=O)N1CCn2c1nc1ccccc12)NCc1ccccc1`, the inhibition was inactive: -44.6%.

Turning to `CCNC(=O)Cn1cnc2c1c(=O)n(C)c(=O)n2C`, the inhibition was inactive: 16.9%.

Turning to `CCN(CC)C(=O)CSc1nc2ccccc2n1CC(=O)N1CCN(c2ccccc2OC)CC1`, the inhibition is inactive: 10%.

`c1nnnn1CCn1cnnn1`: the inhibition was inactive: 0.1%.

On to `CCC(=O)Nc1cccc(C(=O)/C=C/c2ccccc2)c1`, for which the inhibition is inactive: 18.9%.

With `O=C(Cn1cnc2ccccc21)N/N=C/c1ccccc1`, the inhibition was inactive: -4.8%.

Turning to `CCOC(=O)Cn1c(=O)oc2cc(S(=O)(=O)N3CCn4c3nc3ccccc34)ccc21`, the inhibition was inactive: -2.6%.

`O=C(Cn1c(CO)nc2ccccc21)Nc1cc(C(F)(F)F)ccc1N1CCOCC1`: the inhibition is inactive: 5.2%.

For `Cc1ccc(NC(=O)Cn2c(/C=C/c3ccccc3)nc3ccccc32)cc1C`, the inhibition was inactive: -24.6%.

`O=S(=O)(c1ccc(Cl)cc1)N1CCn2c1nc1ccccc12`: the inhibition is inactive: -0.6%.

Consider `CSCC[C@H](NC(=O)N1CCn2c1nc1ccccc12)C(=O)NCc1ccc2c(c1)OCO2`, for which the inhibition was inactive: -2.1%.

For `CC(/C=N/NC(=O)Cn1cnc2ccccc21)=C\c1ccccc1`, the inhibition was inactive: 16.7%.

`COc1ccc(Cc2nnc(NC(=O)Cn3cnc4c3c(=O)n(C)c(=O)n4C)s2)cc1OC`: the inhibition is inactive: -6.4%.

With `CCCn1c(=O)c2c(nc3n2CCN3Cc2ccco2)n(C)c1=O`, the inhibition was inactive: 13%.
